Vapor pressure values, as collected for the OPERA models

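The numbers are reported measurements, compiled and curated for the OPERA QSAR suite. The files give a single number for a compound and property, which may rest on several reports. Method and conditions are not stated for these values. A value may pool stereoisomers or salt forms, and the file does not say which form was measured. Unmarked limits or estimates from the upstream databases cannot be ruled out.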

Vapor pressure is log10 of mmHg; the set covers 15 to 30 °C, mostly 20 to 25 °C. Cells with "n/a" have no entry in this list. "via" names the databases from which the curators took the value.

SMILES	name	vapor pressure (log10 mmHg)	via
CCB(CC)CC	Triethylborane	1.701	eChemPortal
CCOC(=O)N(c1ccccc1)c1ccccc1	Ethyl diphenylcarbamate	-5.063	eChemPortal
CC1CCNCC1	Piperidine, 4-methyl-	1.079	eChemPortal
CCCCN(CCC(=O)OCC)C(C)=O	Ethyl 3-(N-butylacetamido)propionate	-2.953	OCHEM, PubChem
Cc1c[nH]c(=O)cc1N	4-Amino-5-methylpyridin-2(1H)-one	-6.625	eChemPortal
c1ccc(OCCOc2ccccc2)cc1	1,2-Diphenoxyethane	-5.488	eChemPortal
C[C@H](O)[C@H](O)[C@@H](O)[C@@H](O)C=O	L-Rhamnose	-6.087	eChemPortal
CC(C#N)c1cccc(C(=O)Cl)c1 (stereo not given)	3-(1-Cyanoethyl)benzoyl chloride	-3.935	eChemPortal
CC(=CCCC=O)CCCC(C)(C)O	9-Hydroxy-5,9-dimethyl-4-decenal	-3.694	eChemPortal
C=CC(=C)CCCC(C)(C)O	2-Methyl-6-methylene-7-octen-2-ol	-1.301	OFMPub
Clc1cc(-c2c(Cl)ccc(Cl)c2Cl)cc(Cl)c1Cl	2,3,3',4',5',6-Hexachlorobiphenyl	-5.475	OCHEM
O=C(O)c1ccccc1C(=O)c1ccc(Cl)cc1	Benzoic acid, 2-(4-chlorobenzoyl)-	-7.777	eChemPortal
O=C(Cl)C(F)(F)C(F)(F)C(F)(F)F	Heptafluorobutyryl Chloride	2.572	ChemicalBook
COc1c(Cl)c(Cl)cc(Cl)c1Cl	n/a	-2.495	OCHEM
OCCN1CCNCC1	1-Piperazineethanol	-2.162	eChemPortal
CC(O)C#CC(C)O (stereo not given)	Hex-3-yne-2,5-diol	-2.886	eChemPortal
CC(C)(C)N(CCO)CCO	tert-Butyldiethanolamine	-2.696	eChemPortal
C=C(Br)C(=O)Nc1ccc(Nc2cc(S(=O)(=O)[O-])c(N)c3c2C(=O)c2ccccc2C3=O)c(S(=O)(=O)[O-])c1.[Na+].[Na+]	n/a	-6.71	eChemPortal
CC(=O)OCC(C)(C)COC(C)=O	Neopentyl glycol diacetate	-1.259	eChemPortal
CC(C)C(=O)Nc1nc(-c2ccc(O)cc2O)cs1	n/a	-10.78	eChemPortal
COC1=CC(=O)C[C@@H](C)[C@]12Oc1c(Cl)c(OC)cc(OC)c1C2=O	Griseofulvin	-8.018	OCHEM
CCCCN(C)C(=O)Nc1ccc(Cl)c(Cl)c1	Neburon	-6	OCHEM
CCCCCCCCCCCCCCCCCC(=O)NCCO	N-(2-Hydroxyethyl)octadecanamide	-8.657	eChemPortal
CCCCCCCCCCCCCCCCCC(=O)NCCCN(C)CCCNC(=O)CCCCCCCCCCCCCCCCC	Octadecanamide, N,N'-[(methylimino)di-3,1-propanediyl]bis-	-7.887	eChemPortal
CC(=O)CCc1ccccc1	Benzylacetone	-1.375	eChemPortal
CC(C)(C)c1ccc(CCC=O)cc1	3-(4-tert-Butylphenyl)propanal	-2.824	eChemPortal
C=CC(C)CCC=C(C)CCC=O (stereo not given)	4,8-Dimethyl-4,9-decadienal	-1.905	eChemPortal
COc1cc(Br)c(CN(C=O)CCc2ccc(O)cc2)cc1O	n/a	-9.907	eChemPortal
C=S(=C)(Cl)c1cccc2c1C=CC(=[N+]=[N-])C2=O	6-Diazo-5,6-dihydro-5-oxonaphthalene-2-sulphonyl chloride	-6.568	eChemPortal
CCCCCCCCC(CCCCCC)C(=O)OCC(COC(=O)C(CCCCCC)CCCCCCCC)(COC(=O)C(CCCCCC)CCCCCCCC)COC(=O)C(CCCCCC)CCCCCCCC (stereo not given)	n/a	-13.76	eChemPortal
CCOC(=O)C1CCCO1 (stereo not given)	ETHYL TETRAHYDRO-2-FUROATE	0.121	eChemPortal
CCC(C)(O)CCC=C(C)C (stereo not given)	3,7-Dimethyloct-6-en-3-ol	-1.28	eChemPortal
CC(C)c1cc(Oc2ccccc2)cc(C(C)C)c1NC(=S)NC(C)(C)C	Diafenthiuron	-7.824	OCHEM
C=CCn1c(=O)n(CC=C)c(=O)n(CC=C)c1=O	Triallyl isocyanurate	-5.894	eChemPortal
FC(F)(F)C(F)(F)C(F)(F)C(F)(C(F)(F)F)C(F)(F)F	Perfluoroisohexane	2.337	ICF, eChemPortal
CC1(C)CC2(CC(C)(C)N1)OC1(CCCCCCCCCCC1)NC2=O	n/a	-9.284	eChemPortal
Clc1cccc(Cl)c1-c1c(Cl)c(Cl)c(Cl)c(Cl)c1Cl	2,2',3,4,5,6,6'-Heptachlorobiphenyl	-4.996	OCHEM
O=CCC/C=C1\CC2CC1C1CCCC21 (stereo partly drawn)	4-(Octahydro-5H-4,7-methanoinden-5-ylidene)butanal	-3.084	eChemPortal
CCOC(=O)C1CCC(C)CC1=O (stereo not given)	Ethyl 4-methyl-2-oxocyclohexane-1-carboxylate	-0.681	eChemPortal
Nc1ccccn1	2-Aminopyridine	-1.298	eChemPortal
C=CC(=O)OCC(CCC)CCCCC (stereo not given)	n/a	0.446	eChemPortal
CCCCCC1CCC(C2CCC(c3ccc(OCC)c(F)c3F)CC2)CC1 (stereo not given)	n/a	-7.844	eChemPortal
CCC(C)CCCC(C)CCCC(C)C (stereo not given)	2,6,10-Trimethyldodecane	-0.174	eChemPortal
O=C(OCC1CO1)C1CC=CCC1C(=O)OCC1CO1 (stereo not given)	n/a	-6.084	eChemPortal
CC(C)N(CCN)C(C)C	N,N-Bis(1-methylethyl)-1,2-ethanediamine	-0.029	eChemPortal
C=CC1(C)CCCC(C)(C)O1 (stereo not given)	2,2,6-Trimethyl-6-vinyltetrahydropyran	0.564	eChemPortal

Excerpt, the opening 4 entries:

SMILES	name	vapor pressure (log10 mmHg)	via
CCB(CC)CC	Triethylborane	1.701	eChemPortal
CCOC(=O)N(c1ccccc1)c1ccccc1	Ethyl diphenylcarbamate	-5.063	eChemPortal
CC1CCNCC1	Piperidine, 4-methyl-	1.079	eChemPortal
CCCCN(CCC(=O)OCC)C(C)=O	Ethyl 3-(N-butylacetamido)propionate	-2.953	OCHEM, PubChem

From the experimental data distributed with OPERA 2.9.